For four molecules, inhibition results are on record in ChEMBL document CHEMBL6092185, “Discovery of glycosidated glycyrrhetinic acid derivatives: Natural product-based soluble epoxide hydrolase inhibitors” (Eur J Med Chem, 2024).

The species named for experiment [1] is Mus musculus. To be noted: BALB/c, dose 20.0 mg/kg, route ig, time <= 6.0 hrs.
Experiment [2] is filed under the species Mus musculus. To be noted: BALB/c, dose 20.0 mg/kg, route ig, time 5.0 hrs.

On to `CCC(=O)N1CCC(CNC(=O)NC[C@@]2(C)CC[C@]3(C)CC[C@]4(C)C(=CC(=O)[C@@H]5[C@@]6(C)CC[C@H](O[C@H]7O[C@H](CO)[C@@H](O)[C@H](O)[C@@H]7O)C(C)(C)[C@@H]6CC[C@]54C)[C@H]3C2)CC1`, for which the inhibition entry in experiment [1] is “Not active; Exhibited Weak Activity”.
Turning to `CC1(C)[C@@H](O[C@@H]2O[C@H](CO)[C@@H](O)[C@H](O)[C@@H]2O)CC[C@]2(C)[C@H]3C(=O)C=C4[C@H]5C[C@@](C)(CNC(=O)NCC6CCOCC6)CC[C@]5(C)CC[C@@]4(C)[C@]3(C)CC[C@@H]12`, in experiment [2], the inhibition entry is given as “Active; Relatively Slow Onset Of Action With Maximum Inhibition Reached At # Hrs”.
As to `CCC(=O)N1CCC(CNC(=O)NC[C@@]2(C)CC[C@]3(C)CC[C@]4(C)C(=CC(=O)[C@@H]5[C@@]6(C)CC[C@H](O[C@H]7O[C@H](CO)[C@@H](O)[C@H](O)[C@@H]7O)C(C)(C)[C@@H]6CC[C@]54C)[C@@H]3C2)CC1`, in experiment [1], the inhibition entry was “Not active; Exhibited Weak Activity”.
`CC1(C)[C@@H](O[C@@H]2OC[C@@H](O)[C@@H](O)[C@@H]2O)CC[C@]2(C)[C@H]3C(=O)C=C4[C@H]5C[C@@](C)(CNC(=O)NCC6CCOCC6)CC[C@]5(C)CC[C@@]4(C)[C@]3(C)CC[C@@H]12`: the inhibition entry in experiment [2] is “Active; Relatively Slow Onset Of Action With Maximum Inhibition Reached At # Hrs”.
